Values of other authors, collected in patent publication US11517561B2, “Macrocycle and composition comprising thereof” (Shenzhen TargetRx, Inc., priority 2017, dated 2022).

Conditions: patients treated with crizotinib

- 3-4 level of hepatic aminotransferase increase, share of cases: 16%
SMILES: C[C@@H](Oc1cc(-c2cnn(C3CCNCC3)c2)cnc1N)c1c(Cl)ccc(F)c1Cl [Crizotinib]
